The assay is described as follows: Ratio of BR1 IC50 to xrs-6 IC50. The format is functional. In outline:
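MTT assay run in parallel on repair-competent CHO BR1 (40 000 cells/well) and repair-deficient xrs-6 (60 000 cells/well), both in αMEM with serum. 4 h attachment, then 18 h drug exposure from DMSO (final 1% or less), then drug-free medium. Four wells per dose, A540 against DMSO controls. The ratio is the BR1 IC50 divided by the xrs-6 IC50.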

The values below come from ChEMBL document CHEMBL1128184, “Topoisomerase II-mediated DNA cleavage by adocia- and xestoquinones from the Philippine sponge Xestospongia sp” (J Med Chem, 1995).

SMILES strings stand for the structures.

Regarding `O=C1c2c(O)ccc(O)c2C(=O)c2c(NCCNCCO)ccc(NCCNCCO)c21` [MITOXANTRONE], the Ratio is 9.
